According to patent publication EP4737453A1, “NOVEL SELENOPHENE DERIVATIVES” (Aigen Sciences Inc., priority 2023, dated 2025):

What was measured:
Test in all cases: biochemical
[1] = target: T1, SOS1 and KRAS G13D interaction (Homo sapiens, UniProt Q07889)
T1 sequence (Q07889 564-1049 limits assumed): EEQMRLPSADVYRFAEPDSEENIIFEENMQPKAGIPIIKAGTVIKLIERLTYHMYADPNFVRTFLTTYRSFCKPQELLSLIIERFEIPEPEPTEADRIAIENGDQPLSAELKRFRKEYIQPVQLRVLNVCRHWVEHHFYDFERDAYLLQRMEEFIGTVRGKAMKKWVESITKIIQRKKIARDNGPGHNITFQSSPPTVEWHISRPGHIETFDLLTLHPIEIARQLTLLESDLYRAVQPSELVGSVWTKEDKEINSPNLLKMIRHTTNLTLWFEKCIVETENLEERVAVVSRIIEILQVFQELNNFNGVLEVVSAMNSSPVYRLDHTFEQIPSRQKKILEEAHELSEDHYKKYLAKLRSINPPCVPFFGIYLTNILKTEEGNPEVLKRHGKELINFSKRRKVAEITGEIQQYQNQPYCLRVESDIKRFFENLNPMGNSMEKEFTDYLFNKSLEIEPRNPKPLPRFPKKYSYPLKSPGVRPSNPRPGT

[2] = target: T2, SOS1 and KRAS wild-type interaction (Homo sapiens, UniProt Q07889)
T2 sequence (Q07889 564-1049 limits assumed): T1 sequence (Q07889 564-1049 limits assumed)

[3] = target: T3, SOS1 and KRAS G12V interaction (Homo sapiens, UniProt Q07889)
T3 sequence (Q07889 564-1049 limits assumed): T1 sequence (Q07889 564-1049 limits assumed)

CNCc1ccccc1-c1c[se]c([C@@H](C)Nc2nc(C)nc3cc(OC)c(OC)cc23)c1 [Example 1, (R)-6,7-dimethoxyl-2-methyl-N-(1-(4-(2-((methylamino)methyl)phenyl)selenophen-2-yl)ethyl)quinazolin-4-amine]
pIC50 [1]: 7.90 | pIC50 [2]: 8.02 | pIC50 [3]: 7.77

pIC50: −log10 of the molar value.
